Assay results from patent US9346815B2, “5-chloro-2-difluoromethoxyphenyl pyrazolopyrimidine compounds, compositions and methods of use thereof” (Genentech, Inc., priority 2014, dated 2016).

Amino acid sequences for entries named in this document (tags omitted). Residues count along the entry.
UniProt P23458, 875-1153: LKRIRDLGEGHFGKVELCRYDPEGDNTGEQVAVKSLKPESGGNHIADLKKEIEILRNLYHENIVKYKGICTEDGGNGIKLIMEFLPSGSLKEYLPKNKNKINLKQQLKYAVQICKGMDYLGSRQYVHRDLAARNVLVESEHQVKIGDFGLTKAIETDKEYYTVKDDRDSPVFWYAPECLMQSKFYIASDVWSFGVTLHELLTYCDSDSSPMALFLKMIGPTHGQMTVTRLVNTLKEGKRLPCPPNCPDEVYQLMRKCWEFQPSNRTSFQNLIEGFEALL
UniProt O60674, 849-1124: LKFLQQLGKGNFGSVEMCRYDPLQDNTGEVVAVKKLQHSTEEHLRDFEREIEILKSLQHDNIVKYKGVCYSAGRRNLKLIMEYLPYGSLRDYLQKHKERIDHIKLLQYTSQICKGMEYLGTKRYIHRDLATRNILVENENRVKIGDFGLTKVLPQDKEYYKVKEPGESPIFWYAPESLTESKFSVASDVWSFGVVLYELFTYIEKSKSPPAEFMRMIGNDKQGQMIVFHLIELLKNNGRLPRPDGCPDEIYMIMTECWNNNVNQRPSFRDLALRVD

target: isolated recombinant JAK1 kinase domain (Homo sapiens (Human), UniProt P23458); assay: JAK1 enzyme assay (Caliper LabChip, peptide phosphorylation); assay type: biochemical; details: 25 μM ATP

Row | SMILES | Ki [nM]
1 | CN(C)C(=O)N1CCC(CN2C[C@@H]3CN(C(=O)Cn4cc(NC(=O)c5cnn6cccnc56)c(-c5cc(Cl)ccc5OC(F)F)n4)C[C@@H]3C2)CC1 [Example 36, N-[1-[2-[(3aR,6aS)-2-[[1-(dimethylcarbamoyl)-4-piperidyl]methyl]-1,3,3a,4,6,6a-hexahydropyrrolo[3,4-c]pyrrol-5-yl]-2-oxo-ethyl]-3-[5-chloro-2-(difluoromethoxy)phenyl]pyrazol-4-yl]pyrazolo[1,5-a]pyrimidine-3-carboxamide] | 0.84
2 | Nc1nn2cccnc2c1C(=O)Nc1cn(CC(=O)N2C[C@H]3CN(CC4CC4)C[C@H]3C2)nc1-c1cc(Cl)ccc1OC(F)F [Example 57, N-[1-[2-[(3aS,6aR)-2-(cyclopropylmethyl)-1,3,3a,4,6,6a-hexahydropyrrolo[3,4-c]pyrrol-5-yl]-2-oxo-ethyl]-3-[5-chloro-2-(difluoromethoxy)phenyl]pyrazol-4-yl]-2-amino-pyrazolo[1,5-a]pyrimidine-3-carboxamide] | 0.59
3 | Nc1nn2cccnc2c1C(=O)Nc1cn(C2CCCNCC2)nc1-c1cc(Cl)ccc1OC(F)F (stereo not drawn) [Example 171, 2-amino-N-[1-(azepan-4-yl)-3-[5-chloro-2-(difluoromethoxy)phenyl]pyrazol-4-yl]pyrazolo[1,5-a]pyrimidine-3-carboxamide] | 0.72
4 | O=C(Nc1cn(CC(=O)N2CCC3(CNC3)C2)nc1-c1cc(Cl)ccc1OC(F)F)c1cnn2cccnc12 [Example 219, N-[3-[5-chloro-2-(difluoromethoxy)phenyl]-1-[2-(2,6-diazaspiro[3.4]octan-6-yl)-2-oxo-ethyl]pyrazol-4-yl]pyrazolo[1,5-a]pyrimidine-3-carboxamide] | 0.56
5 | CN1C[C@@H]2C[C@H]1CN2C(=O)Cn1cc(NC(=O)c2c(N)nn3cccnc23)c(-c2cc(Cl)ccc2OC(F)F)n1 [Example 250, 2-amino-N-[3-[5-chloro-2-(difluoromethoxy)phenyl]-1-[2-[(1S,4S)-5-methyl-2,5-diazabicyclo[2.2.l]heptan-2-yl]-2-oxo-ethyl]pyrazol-4-yl]pyrazolo[1,5-a]pyrimidine-3-carboxamide] | 1.39
6 | Nc1nn2cccnc2c1C(=O)Nc1cn(CC(=O)N2CC[C@H](O)C2)nc1-c1cc(Cl)ccc1OC(F)F [Example 270, 2-amino-N-[3-[5-chloro-2-(difluoromethoxy)phenyl]-1-[2-[(3S)-3-hydroxypyrrolidin-1-yl]-2-oxo-ethyl]pyrazol-4-yl]pyrazolo[1,5-a]pyrimidine-3-carboxamide] | 0.24
7 | N#CC1(c2ccccc2)CCN(C(=O)Cn2cc(NC(=O)c3cnn4cccnc34)c(-c3cc(Cl)ccc3OC(F)F)n2)CC1 [Example 281, N-[3-[5-chloro-2-(difluoromethoxy)phenyl]-1-[2-(4-cyano-4-phenyl-1-piperidyl)-2-oxo-ethyl]pyrazol-4-yl]pyrazolo[1,5-a]pyrimidine-3-carboxamide] | 0.48
8 | O=C(Nc1cn(CC(=O)N2CCCCC2)nc1-c1cc(Cl)ccc1OC(F)F)c1cnn2cccnc12 [Example 308, N-[3-[5-chloro-2-(difluoromethoxy)phenyl]-1-[2-oxo-2-(1-piperidyl)ethyl]pyrazol-4-yl]pyrazolo[1,5-a]pyrimidine-3-carboxamide] | 0.24
9 | O=C(Nc1cn([C@H]2CNCC[C@@H]2O)nc1-c1cc(Cl)ccc1OC(F)F)c1cnn2cccnc12 [Example 361, N-[3-[5-chloro-2-(difluoromethoxy)phenyl]-1-[(3S,4S)-4-hydroxypiperidin-3-yl]-1H-pyrazol-4-yl]pyrazolo[1,5-a]pyrimidine-3-carboxamide] | 2.94
10 | CCOC(=O)CNC1CCN(C(=O)Cn2cc(NC(=O)c3cnn4cccnc34)c(-c3cc(Cl)ccc3OC(F)F)n2)CC1 [Example 364, ethyl 2-[[1-(2-[3-[5-chloro-2-(difluoromethoxy)phenyl]-4-[pyrazolo[1,5-a]pyrimidine-3-amido]-1H-pyrazol-1-yl]acetyl)piperidin-4-yl]amino]acetate] | 0.77
11 | O=C(Nc1cn(CCNCc2cccnc2)nc1-c1cc(Cl)ccc1OC(F)F)c1cnn2cccnc12 [Example 368, N-[3-[5-chloro-2-(difluoromethoxy)phenyl]-1-[2-[(pyridin-3-ylmethyl)amino]ethyl]-1H-pyrazol-4-yl]pyrazolo[1,5-a]pyrimidine-3-carboxamide] | 0.72
12 | CCN[C@@H](C)Cn1cc(NC(=O)c2cnn3cccnc23)c(-c2cc(Cl)ccc2OC(F)F)n1 [Example 371, N-[3-[5-chloro-2-(difluoromethoxy)phenyl]-1-[(2S)-2-(ethylamino)propyl]-1H-pyrazol-4-yl]pyrazolo[1,5-a]pyrimidine-3-carboxamide] | 1.14
13 | CCOC(=O)CN1CCN(C(=O)Cn2cc(NC(=O)c3cnn4cccnc34)c(-c3cc(Cl)ccc3OC(F)F)n2)CC1 [Example 397, ethyl 2-[4-(2-[3-[5-chloro-2-(difluoromethoxy)phenyl]-4-[pyrazolo[1,5-a]pyrimidine-3-amido]-1H-pyrazol-1-yl]acetyl)piperazin-1-yl]acetate] | 0.28

Results, then the compound that gave them:

Row | Ki [nM] | SMILES
14 | 0.36 | N#CC1CCN(C2CCN(C(=O)Cn3cc(NC(=O)c4cnn5cccnc45)c(-c4cc(Cl)ccc4OC(F)F)n3)CC2)C1 (stereo not drawn) [Example 409, N-(3-(5-chloro-2-(difluoromethoxy)phenyl)-1-(2-(4-(3-cyanopyrrolidin-1-yl)piperidin-1-yl)-2-oxoethyl)-1H-pyrazol-4-yl)pyrazolo[1,5-a]pyrimidine-3-carboxamide]
15 | 2.43 | O=C(CN1CCCCC1)Cn1cc(NC(=O)c2cnn3cccnc23)c(-c2cc(Cl)ccc2OC(F)F)n1 [Example 418, N-(3-(5-chloro-2-(difluoromethoxy)phenyl)-1-(2-oxo-3-(piperidin-1-yl)propyl)-1H-pyrazol-4-yl)pyrazolo[1,5-a]pyrimidine-3-carboxamide]

target: isolated recombinant JAK2 kinase domain (Homo sapiens (Human), UniProt O60674); assay: JAK2 enzyme assay (Caliper LabChip, peptide phosphorylation); assay type: biochemical; details: 25 μM ATP

Row | SMILES | Ki [nM]
16 | CCN[C@@H](C)Cn1cc(NC(=O)c2cnn3cccnc23)c(-c2cc(Cl)ccc2OC(F)F)n1 [Example 371, N-[3-[5-chloro-2-(difluoromethoxy)phenyl]-1-[(2S)-2-(ethylamino)propyl]-1H-pyrazol-4-yl]pyrazolo[1,5-a]pyrimidine-3-carboxamide] | 1.19
17 | CN(C)C(=O)CNC1CCN(C(=O)Cn2cc(NC(=O)c3cnn4cccnc34)c(-c3cc(Cl)ccc3OC(F)F)n2)CC1 [Example 401, N-(3-(5-chloro-2-(difluoromethoxy)phenyl)-1-(2-(4-(2-(dimethylamino)-2-oxoethylamino)piperidin-1-yl)-2-oxoethyl)-1H-pyrazol-4-yl)pyrazolo[1,5-a]pyrimidine-3-carboxamide] | 2.03

Continued, values first:

Row | Ki [nM] | SMILES
18 | 0.71 | O=C(Nc1cn(CC(O)CN2CCOCC2)nc1-c1cc(Cl)ccc1OC(F)F)c1cnn2cccnc12 (stereo not drawn) [Example 403, N-(3-(5-chloro-2-(difluoromethoxy)phenyl)-1-(2-hydroxy-3-morpholinopropyl)-1H-pyrazol-4-yl)pyrazolo[1,5-a]pyrimidine-3-carboxamide]
19 | 0.96 | O=C(CN1CCOCC1)Cn1cc(NC(=O)c2cnn3cccnc23)c(-c2cc(Cl)ccc2OC(F)F)n1 [Example 412, N-(3-(5-chloro-2-(difluoromethoxy)phenyl)-1-(3-morpholino-2-oxopropyl)-1H-pyrazol-4-yl)pyrazolo[1,5-a]pyrimidine-3-carboxamide]
20 | 0.84 | CN1CCN(C2CCN(C(=O)Cn3cc(NC(=O)c4cnn5cccnc45)c(-c4cc(Cl)ccc4OC(F)F)n3)CC2)CC1=O [Example 416, N-(3-(5-chloro-2-(difluoromethoxy)phenyl)-1-(2-(4-(4-methyl-3-oxopiperazin-1-yl)piperidin-1-yl)-2-oxoethyl)-1H-pyrazol-4-yl)pyrazolo[1,5-a]pyrimidine-3-carboxamide]
21 | 1.2 | CN(C1CCN(C(=O)Cn2cc(NC(=O)c3cnn4cccnc34)c(-c3cc(Cl)ccc3OC(F)F)n2)CC1)[C@@H]1CCOC1 [Example 432, N-(3-(5-chloro-2-(difluoromethoxy)phenyl)-1-(2-(4-(methyl((R)-tetrahydrofuran-3-yl)amino)piperidin-1-yl)-2-oxoethyl)-1H-pyrazol-4-yl)pyrazolo[1,5-a]pyrimidine-3-carboxamide]
22 | 1.92 | CN(CC1(C)OCCO1)C1CCN(C(=O)Cn2cc(NC(=O)c3cnn4cccnc34)c(-c3cc(Cl)ccc3OC(F)F)n2)CC1 [Example 438, N-(3-(5-chloro-2-(difluoromethoxy)phenyl)-1-(2-(4-(methyl((2-methyl-1,3-dioxolan-2-yl)methyl)amino)piperidin-1-yl)-2-oxoethyl)-1H-pyrazol-4-yl)pyrazolo[1,5-a]pyrimidine-3-carboxamide]
23 | 0.26 | O=C(Nc1cn(Cc2cn(C3CCN(C4CCOCC4)CC3)nn2)nc1-c1cc(Cl)ccc1OC(F)F)c1cnn2cccnc12 [Example 457, N-(3-(5-chloro-2-(difluoromethoxy)phenyl)-1-((1-(1-(tetrahydro-2H-pyran-4-yl)piperidin-4-yl)-1H-1,2,3-triazol-4-yl)methyl)-1H-pyrazol-4-yl)pyrazolo[1,5-a]pyrimidine-3-carboxamide]
24 | 0.72 | CN(C1CCN(C(=O)Cn2cc(NC(=O)c3cnn4cccnc34)c(-c3cc(Cl)ccc3OC(F)F)n2)CC1)C1COC1 [Example 459, N-(3-(5-chloro-2-(difluoromethoxy)phenyl)-1-(2-(4-(methyl(oxetan-3-yl)amino)piperidin-1-yl)-2-oxoethyl)-1H-pyrazol-4-yl)pyrazolo[1,5-a]pyrimidine-3-carboxamide]
